Experimental data reported in US20070203060A1, “Casein Derived Peptides And Therapeutic Uses Thereof” (priority 2004, published 2007).

Tested on: peripheral white blood cells of myeloablated, bone marrow transplanted mice
Experiment: Leukocyte reconstitution in irradiated bone marrow transplant recipient mice
Type: in vivo, mouse
Details: F1 mice, 750 cGy, 1 mg i.v., 5 and 7 days post-transplantation

SEQ ID NO: 434: synthetic peptide derived from κ-casein as printed in b423; probably κ 106-127 (SEQ ID NO: 30) (YY)
early leukocyte reconstitution (in words): strong stimulation
